Results as given in patent US20260193344A1 (H LUNDBECK A S, published 2026).

T1: human ACTH 1-39 (human, N-terminal biotin in the ELISA and HTRF binding assays (p-1487, p-1488); 125I on Tyr23 in Example 9 (p-1542); unlabelled in SPR. Letters unchanged.)
T1 construct: Unlabelled in SPR and cell assays; also called huACTH 1-39; huACTH (1-39)
T1 peptide: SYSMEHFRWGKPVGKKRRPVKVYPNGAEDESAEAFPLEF

T2: human alpha-MSH (ACTH 1-13) (human)
T2 peptide: SYSMEHFRWGKPV


Assays:
human ACTH 1-39 [1] = target: T1, human ACTH 1-39; assay: ELISA, biotin-huACTH 1-39 on neutravidin plate
human ACTH 1-39 [2] = target: T1, human ACTH 1-39; assay: cell-based or functional assay
human ACTH 1-39 [3] = target: T1, human ACTH 1-39; assay: SPR (ProteOn XPR36), antibody immobilized
[4] = target: T2, human alpha-MSH (ACTH 1-13); assay: SPR (ProteOn XPR36), antibody immobilized
human ACTH 1-39 [5] = target: T1, human ACTH 1-39; assay: cell-based or functional assay
human ACTH 1-39 [6] = target: T1, human ACTH 1-39; assay: cell-based or functional assay
human ACTH 1-39 [7] = target: T1, human ACTH 1-39; assay: cell-based or functional assay

| Binder | EC50 (human ACTH 1-39 [1]) | IC50, ACTH-induced cAMP, MC3R cells (human ACTH 1-39 [2]) | IC50, ACTH-induced cAMP, MC4R cells (human ACTH 1-39 [2]) | IC50, ACTH-induced cAMP, MC5R cells (human ACTH 1-39 [2]) | Kd (human ACTH 1-39 [3]) | koff (human ACTH 1-39 [3]) | kon (human ACTH 1-39 [3]) | koff [4] | IC50, ACTH-induced cAMP, MC2R cells (human ACTH 1-39 [5]) | IC50, ACTH-induced cAMP reporter, MC1R cells (human ACTH 1-39 [6]) | IC50, ACTH-induced cortisol, Y1 cells (human ACTH 1-39 [7]) |
| --- | --- | --- | --- | --- | --- | --- | --- | --- | --- | --- | --- |
| Ab13 (antibody, human IgG1, kappa, N297A, V domains shown) VH: QQLEESGGGLVKPGGTLTLTCTASGFSFSSGYDICWARQGPGKGLEWIGCIDTGSGNTYYASWAKGRFTMSRTSSTTVTLQVTSLTAADTATYFCAKGISSIWGPGTLVTVSS VL: DIVMTQTPASVSEPVGGTVTIKCQASQTISSDLAWYQQKPGQPPKLLIYAASKLTSGVSSRFKGGGTGTQFTLTISDLECADAATYYCQTYYDIIDDGCTFGGGTEVVVKR | 1.04 nM | 141 nM | 71.4 nM | 4700 nM | 0.083 nM | 8.3e-05 s⁻¹ | 1e+06 M⁻¹ s⁻¹ | > 0.1 s⁻¹ | 0.2 nM | – | – |
| Ab15 (antibody, human IgG1, kappa, N297A, V domains shown) VH: QQQLEESGGGLVKPGGTLTLTCKGSGIAFSDTYDMCWVRQAPGKGLEWIGCIDTGSGDTYYPTWAKGRFTISKPSSTTVDLKMTSLTAADTATYFCAKGVSSLWGQGTLVTVSS VL: DIVMTQTPASVSEPVGGTVTIKCQASEDIESDLAWYQQKPGQPPKLLIYGASTLKSGVSSRFRGSGSGTEYTLTISDLECADAATYYCQTYYDMADDGCSFGGGTEVVVKR | 0.9 nM | 136 nM | 93.9 nM | 6100 nM | 0.088 nM | 7.2e-05 s⁻¹ | 830000 M⁻¹ s⁻¹ | > 0.1 s⁻¹ | 0.14 nM | 2.11 nM | 1.84 nM |
| Ab15.H (antibody, human IgG1, kappa, N297A, V domains shown) VH: QQQLVESGGGLVQPGGSLRLSCAASGFTVSDTYDMCWVRQAPGKGLEWIGCIDTGSGDTYYPTSAKGRFTISRDNSKNTLYLQMNSLRAEDTAVYYCAKGVSSLWGQGTLVTVSS VL: DIQMTQSPSTLSASVGDRVTITCQASEDIESDLAWYQQKPGKAPKLLIYGASTLKSGVPSRFSGSGSGTEYTLTISSLQPDDFATYYCQTYYDMADDGASFGGGTKVEIKR | – | 131 nM | 79.5 nM | 4300 nM | 0.16 nM | 0.00016 s⁻¹ | 1e+06 M⁻¹ s⁻¹ | > 0.1 s⁻¹ | 0.6 nM | 2.1 nM | 3.83 nM |
| Ab13.H (antibody, human IgG1, kappa, N297A, V domains shown) VH: EVQLVESGGGLVQPGGSLRLSCAASGFTVSSGYDICWVRQAPGKGLEWIGCIDTGSGNTYYASSAKGRFTMSRDNSKNTVYLQMNSLRAEDTAVYYCAKGISSIWGQGTLVTVSS VL: DIQMTQSPSTLSASVGDRVTITCQASQTISSDLAWYQQKPGKAPKLLIYAASKLTSGVPSRFSGSGSGTEFTLTISSLQPDDFATYYCQTYYDIIDDGATFGGGTKVEIKR | – | – | – | – | 0.076 nM | 6.8e-05 s⁻¹ | 900000 M⁻¹ s⁻¹ | > 0.1 s⁻¹ | 0.1 nM | – | 1.91 nM |
| Ab17.H (antibody, human IgG1, kappa, N297A, V domains shown) VH: QQQLVESGGGLVQPGGSLRLSCAASGFTVSSGYDICWVRQAPGKGLEWIGCIDTGSGNTYYASSAKGRFTISRDNSKNTLYLQMNSLRAEDTAVYYCAKGISSLWGQGTLVTVSS VL: DIQMTQSPSTLSASVGDRVTITCQASQTISSDLAWYQQKPGKAPKLLIYAASKLTSGVPSRFSGSGSGTEFTLTISSLQPDDFATYYCQTYYDISDDGATFGGGTKVEIKR | – | 110 nM | 81.6 nM | 4000 nM | 0.17 nM | 0.00014 s⁻¹ | 820000 M⁻¹ s⁻¹ | > 0.1 s⁻¹ | 0.37 nM | 1.56 nM | 4.3 nM |
| Ab17 (antibody, human IgG1, kappa, N297A, V domains shown) VH: QQQLEESGGGLVKPGGTLTLTCKASGFSFSSGYDICWARQGPGKGLEWIGCIDTGSGNTYYASWAKGRFTISRTSSTTVTLQMTSLTAADTATYFCAKGISSLWGPGTLVTVSS VL: DIVMTQTPASVSEPVGGTVTIKCQASQTISSDLAWYQQKPGQPPKLLIYAASKLTSGVSSRFKGGGTGTQFTLTISDLECADAATYYCQTYYDISDDGCTFGGGTEVVVKR | 0.81 nM | 139 nM | 94.4 nM | 5900 nM | 0.33 nM | 0.00025 s⁻¹ | 760000 M⁻¹ s⁻¹ | > 0.1 s⁻¹ | 0.48 nM | 2.56 nM | 4.47 nM |
